Laboratory results from patent publication EP4837910A1, “ISOXAZOLINE COMPOUND AND PREPARATION METHOD THEREFOR, HERBICIDAL COMPOSITION, AND USE” (dated 2026).

Assays:
[1] = system: Monocotyledonous and dicotyledonous weed; test: Post-emergence test on weeds (greenhouse, spray tower); details: Dosage 240 g a.i./ha, after 3 weeks of cultivation in a greenhouse, fresh weight control rate
[2] = system: Monocotyledonous and dicotyledonous weed; test: Pre-emergence test on weeds (greenhouse, sprayed immediately after sowing); details: after 4 weeks in greenhouse, fresh weight control rate
Triticum aestivum = test: Pre-emergence test, crop damage (greenhouse, sprayed immediately after sowing); details: after 4 weeks in greenhouse, fresh weight control rate
Zea mays = test: as above; details: after 4 weeks in greenhouse, fresh weight control rate

| Compound | Avena fatua, activity level of plant damage (growth control rate) [1] | activity level of plant damage (growth control rate), Digitaria sanguinalis ([2]; Dosage 240 g a.i./ha) | activity level of plant damage (growth control rate), Lolium multiflorum ([2]; Dosage 240 g a.i./ha) | activity level of plant damage (growth control rate), Setaria viridis ([2]; Dosage 240 g a.i./ha) | activity level of plant damage (growth control rate), Triticum aestivum (Triticum aestivum; Dosage 240 g a.i./ha) | activity level of plant damage (growth control rate), Zea mays (Zea mays; Dosage 240 g a.i./ha) | activity level of plant damage (growth control rate), Descurainia sophia ([2]; Dosage 240 g a.i./ha) | Digitaria sanguinalis, activity level of plant damage (growth control rate) [1] | activity level of plant damage (growth control rate), Descurainia sophia ([2]; Dosage 250 g a.i./ha) | activity level of plant damage (growth control rate), Triticum aestivum (Triticum aestivum; Dosage 250 g a.i./ha) | activity level of plant damage (growth control rate), Zea mays (Zea mays; Dosage 250 g a.i./ha) |
| --- | --- | --- | --- | --- | --- | --- | --- | --- | --- | --- | --- |
| C=CC1(C(=O)N[C@H](C)C(=O)N(C)OC)CC(c2cc(Cl)cc(Cl)c2)=NO1 (stereo partly drawn) | 5 (Level 5: growth control rate greater than or equal to 50% and less than 70%) | 7 (Level 7: growth control rate greater than or equal to 80% and less than 90%) | 6 (Level 6: growth control rate greater than or equal to 70% and less than 80%) | 7 (Level 7: growth control rate greater than or equal to 80% and less than 90%) | 1 (Level 1: growth control rate less than 10%) | 2 (Level 2: growth control rate greater than or equal to 10% and less than 20%) | – | – | – | – | – |
| C=C[C@@]1(C(=O)N[C@H](C)C(=O)NOC)CC(c2cc(Cl)cc(Cl)c2)=NO1 | 9 | – | – | – | 0 | 0 | 8 (Level 8: growth control rate greater than or equal to 90% and less than 100%) | – | – | – | – |
| C=C(C)[C@@]1(C(=O)N[C@@H](C)C(=O)NOC)CC(c2cc(F)cc(OC)c2)=NO1 | 9 | 9 | 5 (Level 5: growth control rate greater than or equal to 50% and less than 70%) | 5 (Level 5: growth control rate greater than or equal to 50% and less than 70%) | 1 (Level 1: growth control rate less than 10%) | 0 | – | 5 (Level 5: growth control rate greater than or equal to 50% and less than 70%) | – | – | – |
| C=C(C)[C@]1(C(=O)N[C@@H](C)C(=O)N(C)OC)CC(c2cc(C)cc(F)c2)=NO1 | – | 9 | 9 | 9 | 0 | 0 | 9 | – | – | – | – |
| C=C[C@]1(C(=O)N[C@@H](C)C(=O)N(C)OCC(=O)OC)CC(c2cc(F)cc(F)c2)=NO1 | – | – | 5 (Level 5: growth control rate greater than or equal to 50% and less than 70%) | – | 2 (Level 2: growth control rate greater than or equal to 10% and less than 20%) | 1 (Level 1: growth control rate less than 10%) | – | – | – | – | – |
| CC[C@]1(C(=O)N[C@@H](C)C(=O)N(C)OC)CC(c2cc(C)cc(Cl)c2)=NO1 | – | 9 | – | 5 (Level 5: growth control rate greater than or equal to 50% and less than 70%) | 0 | 1 (Level 1: growth control rate less than 10%) | – | – | – | – | – |
| CON(C)C(=O)[C@@H](C)NC(=O)C1(C)CC(c2cc(F)cc(F)c2)=NO1 (stereo partly drawn) | – | – | – | – | – | – | – | – | 5 (Level 5: growth control rate greater than or equal to 50% and less than 70%) | 0 | 0 |
| C=C[C@@]1(C(=O)N[C@@H](C)C(=O)N(C)OC)CC(c2cc(Br)cc(Br)c2)=NO1 | – | – | – | – | 0 | 1 (Level 1: growth control rate less than 10%) | 5 (Level 5: growth control rate greater than or equal to 50% and less than 70%) | – | – | – | – |
| C=C[C@]1(C(=O)N[C@@H](C(=O)N(C)OC)C2CC2)CC(c2cc(F)cc(F)c2)=NO1 | – | – | – | – | 0 | 1 (Level 1: growth control rate less than 10%) | 5 (Level 5: growth control rate greater than or equal to 50% and less than 70%) | – | – | – | – |
| C=C(C)[C@@]1(C(=O)N[C@@H](C)C(=O)N(C)OC)CC(c2cc(C)cc(Cl)c2)=NO1 | – | 9 | 7 (Level 7: growth control rate greater than or equal to 80% and less than 90%) | 8 (Level 8: growth control rate greater than or equal to 90% and less than 100%) | 1 (Level 1: growth control rate less than 10%) | 2 (Level 2: growth control rate greater than or equal to 10% and less than 20%) | 8 (Level 8: growth control rate greater than or equal to 90% and less than 100%) | – | – | – | – |
| C=C(C)[C@]1(C(=O)N[C@@H](C)C(=O)N(C)OC)CC(c2cc(C)cc(Cl)c2)=NO1 | – | 9 | 5 (Level 5: growth control rate greater than or equal to 50% and less than 70%) | 8 (Level 8: growth control rate greater than or equal to 90% and less than 100%) | 1 (Level 1: growth control rate less than 10%) | 2 (Level 2: growth control rate greater than or equal to 10% and less than 20%) | 8 (Level 8: growth control rate greater than or equal to 90% and less than 100%) | – | – | – | – |
| C=CC1(C(=O)N[C@H](C)C(=O)NOC)CC(c2cccc(C(F)(F)F)c2)=NO1 (stereo partly drawn) | – | – | – | – | 2 (Level 2: growth control rate greater than or equal to 10% and less than 20%) | 0 | 6 (Level 6: growth control rate greater than or equal to 70% and less than 80%) | – | – | – | – |
| C=C(C)[C@@]1(C(=O)N[C@@H](C)C(=O)N(C)OC)CC(c2cc(C)cc(F)c2)=NO1 | – | – | – | – | 0 | 0 | 8 (Level 8: growth control rate greater than or equal to 90% and less than 100%) | – | – | – | – |
